Tests used:
[1] = system: Tg4510 mice; conditions: mouse, in vivo
Protocol: (§1) The room temperature was maintained between 20 and 23° C. with a relative humidity maintained around 50%. Chow and water were provided ad libitum for the duration of the study.
(§2) An effect was considered significant if p<0.05.

[2] = system: tTA mice; conditions: mouse, in vivo, po, 30 mg/kg
Protocol: as §1, §2

## Cc1cc(C)nc(N2CC3CN(C(=O)c4c(F)cccc4-n4nccn4)CC3C2)n1 (centres unmarked) [seltorexant, [5-(4,6-dimethyl-pyrimidin-2-yl)-hexahydro-pyrrolo[3,4-c]pyrrol-2-yl]-(2-fluoro-6-[1,2,3]triazol-2-yl-phenyl)-methanone]
[1]
  reduction in travel (distance traveled): approximately 50%
[2]
  distance traveled compared with tTA-Vehicle mice (Fisher's LSD): traveled significantly less
